{"sequences": {"note": "Sequences of proteins named here, by UniProt entry; tags and fusion partners are left off.", "UniProt P31390, whole entry": "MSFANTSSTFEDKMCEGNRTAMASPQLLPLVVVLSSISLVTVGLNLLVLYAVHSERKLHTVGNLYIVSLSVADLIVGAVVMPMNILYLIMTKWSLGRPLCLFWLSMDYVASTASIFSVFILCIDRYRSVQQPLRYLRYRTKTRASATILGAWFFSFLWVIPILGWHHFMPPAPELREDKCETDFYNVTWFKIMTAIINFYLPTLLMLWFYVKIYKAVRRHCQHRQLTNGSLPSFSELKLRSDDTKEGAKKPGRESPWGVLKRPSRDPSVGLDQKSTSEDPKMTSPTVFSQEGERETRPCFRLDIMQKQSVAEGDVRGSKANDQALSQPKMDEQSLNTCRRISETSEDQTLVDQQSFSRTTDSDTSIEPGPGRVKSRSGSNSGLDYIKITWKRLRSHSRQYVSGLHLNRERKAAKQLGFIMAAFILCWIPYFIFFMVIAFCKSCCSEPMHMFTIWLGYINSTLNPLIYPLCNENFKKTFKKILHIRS"}, "source": "ChEMBL document CHEMBL5329202", "about": "“New aryl-/heteroarylpiperazine derivatives of 1,7-dimethyl-8,9-diphenyl-4-azatricyclo[5.2.1.02,6]dec-8-ene-3,5,10-trione: Synthesis and preliminary studies of biological activities” (Bioorg Med Chem, 2023)", "target": "Histamine H1 receptor (Rattus norvegicus, UniProt P31390)", "test": "Displacement of [3H]pyrilamine from Sprague-Dawley rat H1 receptor assessed as inhibition constant measured after 30 mins by competitive binding assay", "note": "pKi: −log10 of the molar value."}
{"smiles": "CC(CN1c2ccccc2Sc2ccccc21)N(C)C", "note": "(stereo unspecified) [PROMETHAZINE]", "values": [{"measurement": "pKi", "value": 9.00}]}
